# Membrane permeability of cyclic peptides

Source: CycPeptMPDB (Li et al. 2023), which took these values from Lee et al. 2022, doi:10.1016/j.bmc.2022.116862.

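Lipid, pH, incubation time, direction and concentration are not recorded in the data file. Other peptides of the study may be missing here. Entries at the database's floor value (log10 P of -10) are not listed.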

PAMPA is the parallel artificial membrane permeability assay, which has no cells and reads passive diffusion. Permeability is in 10^-6 cm/s, converted from the database's log10 values; higher is more permeable.

compound,PAMPA (10^-6 cm/s)
CCC[C@@H]1NC(=O)[C@H](CC(C)C)N(C)C(=O)[C@H](CC(C)C)N(C)C(=O)[C@H](CC(C)C)N(C)C(=O)[C@H](CC(C)C)N(C)C(=O)[C@@H](C)NC(=O)[C@H](CCC(N)=O)NC(=O)[C@H](CC(C)C)N(C)C(=O)[C@H](C(C)C)NC(=O)CN(CC(C)C)C(=O)CN(C)C1=O,0.013
CCC[C@@H]1NC(=O)[C@H](CC(C)C)N(C)C(=O)[C@H](CC(C)C)N(C)C(=O)[C@H](CC(C)C)N(C)C(=O)CN(CCCCN)C(=O)[C@@H](C)NC(=O)[C@H](CCC(N)=O)NC(=O)[C@H](CC(C)C)N(C)C(=O)[C@H](C(C)C)NC(=O)[C@H](CC(C)C)N(C)C(=O)CN(C)C1=O,0.006
CCC[C@@H]1NC(=O)[C@H](CC(C)C)N(C)C(=O)[C@H](CC(C)C)N(C)C(=O)[C@H](CC(C)C)N(C)C(=O)[C@H](CC(C)C)N(C)C(=O)[C@@H](C)NC(=O)[C@H](CCC(N)=O)NC(=O)[C@H](CC(C)C)N(C)C(=O)[C@H](C(C)C)NC(=O)CN(CCO)C(=O)CN(C)C1=O,0.004
CCC[C@@H]1NC(=O)[C@H](CC(C)C)N(C)C(=O)[C@H](CC(C)C)N(C)C(=O)[C@H](CC(C)C)N(C)C(=O)[C@H](CC(C)C)N(C)C(=O)[C@@H](C)NC(=O)[C@H](CCC(N)=O)NC(=O)[C@H](CC(C)C)N(C)C(=O)[C@H](C(C)C)NC(=O)CN(Cc2ccccc2)C(=O)CN(C)C1=O,0.0089
CCC[C@@H]1NC(=O)[C@H](CC(C)C)N(C)C(=O)[C@H](CC(C)C)N(C)C(=O)CN(CCO)C(=O)[C@H](CC(C)C)N(C)C(=O)[C@@H](C)NC(=O)[C@H](CCC(N)=O)NC(=O)[C@H](CC(C)C)N(C)C(=O)[C@H](C(C)C)NC(=O)[C@H](CC(C)C)N(C)C(=O)CN(C)C1=O,0.0089
CCC[C@@H]1NC(=O)[C@H](CC(C)C)N(C)C(=O)[C@H](CC(C)C)N(C)C(=O)CN(C)C(=O)[C@H](CC(C)C)N(C)C(=O)[C@@H](C)NC(=O)[C@H](CCC(N)=O)NC(=O)[C@H](CC(C)C)N(C)C(=O)[C@H](C(C)C)NC(=O)[C@H](CC(C)C)N(C)C(=O)CN(C)C1=O,0.011
CCC[C@@H]1NC(=O)[C@H](CC(C)C)N(C)C(=O)[C@H](CC(C)C)N(C)C(=O)[C@H](CC(C)C)N(C)C(=O)CN(CCO)C(=O)[C@@H](C)NC(=O)[C@H](CCC(N)=O)NC(=O)[C@H](CC(C)C)N(C)C(=O)[C@H](C(C)C)NC(=O)[C@H](CC(C)C)N(C)C(=O)CN(C)C1=O,0.0079
CCC[C@@H]1NC(=O)[C@H](CC(C)C)N(C)C(=O)[C@H](CC(C)C)N(C)C(=O)[C@H](CC(C)C)N(C)C(=O)[C@H](CC(C)C)N(C)C(=O)[C@@H](C)NC(=O)[C@H](CCC(N)=O)NC(=O)[C@H](CC(C)C)N(C)C(=O)[C@H](C(C)C)NC(=O)CN(C)C(=O)CN(C)C1=O,0.013
CCC[C@@H]1NC(=O)[C@H](CC(C)C)N(C)C(=O)[C@H](CC(C)C)N(C)C(=O)[C@H](CC(C)C)N(C)C(=O)CN(CC(C)C)C(=O)[C@@H](C)NC(=O)[C@H](CCC(N)=O)NC(=O)[C@H](CC(C)C)N(C)C(=O)[C@H](C(C)C)NC(=O)[C@H](CC(C)C)N(C)C(=O)CN(C)C1=O,0.014
CCC[C@@H]1NC(=O)[C@H](CC(C)C)N(C)C(=O)[C@H](CC(C)C)N(C)C(=O)[C@H](CC(C)C)N(C)C(=O)[C@H](CC(C)C)N(C)C(=O)[C@@H](C)NC(=O)[C@H](CCC(N)=O)NC(=O)[C@H](CC(C)C)N(C)C(=O)[C@H](C(C)C)NC(=O)CN(CCOC)C(=O)CN(C)C1=O,0.0089
CCC[C@@H]1NC(=O)[C@H](CC(C)C)N(C)C(=O)[C@H](CC(C)C)N(C)C(=O)CN(CC(C)C)C(=O)[C@H](CC(C)C)N(C)C(=O)[C@@H](C)NC(=O)[C@H](CCC(N)=O)NC(=O)[C@H](CC(C)C)N(C)C(=O)[C@H](C(C)C)NC(=O)[C@H](CC(C)C)N(C)C(=O)CN(C)C1=O,0.0089
CCC[C@@H]1NC(=O)[C@H](CC(C)C)N(C)C(=O)[C@H](CC(C)C)N(C)C(=O)CN(CCOC)C(=O)[C@H](CC(C)C)N(C)C(=O)[C@@H](C)NC(=O)[C@H](CCC(N)=O)NC(=O)[C@H](CC(C)C)N(C)C(=O)[C@H](C(C)C)NC(=O)[C@H](CC(C)C)N(C)C(=O)CN(C)C1=O,0.006
CCC[C@@H]1NC(=O)[C@H](CC(C)C)N(C)C(=O)[C@H](CC(C)C)N(C)C(=O)[C@H](CC(C)C)N(C)C(=O)CN(CCC(=O)O)C(=O)[C@@H](C)NC(=O)[C@H](CCC(N)=O)NC(=O)[C@H](CC(C)C)N(C)C(=O)[C@H](C(C)C)NC(=O)[C@H](CC(C)C)N(C)C(=O)CN(C)C1=O,0.0019
CCC[C@@H]1NC(=O)[C@H](CC(C)C)N(C)C(=O)[C@H](CC(C)C)N(C)C(=O)[C@H](CC(C)C)N(C)C(=O)[C@H](CC(C)C)N(C)C(=O)[C@@H](C)NC(=O)[C@H](CCC(N)=O)NC(=O)[C@H](CC(C)C)N(C)C(=O)[C@H](C(C)C)NC(=O)[C@H](CC(C)C)N(C)C(=O)CN(C)C1=O,0.01
CCC[C@@H]1NC(=O)[C@H](CC(C)C)N(C)C(=O)[C@H](CC(C)C)N(C)C(=O)CN(Cc2ccccc2)C(=O)[C@H](CC(C)C)N(C)C(=O)[C@@H](C)NC(=O)[C@H](CCC(N)=O)NC(=O)[C@H](CC(C)C)N(C)C(=O)[C@H](C(C)C)NC(=O)[C@H](CC(C)C)N(C)C(=O)CN(C)C1=O,0.013
CCC[C@@H]1NC(=O)[C@H](CC(C)C)N(C)C(=O)[C@H](CC(C)C)N(C)C(=O)[C@H](CC(C)C)N(C)C(=O)CN(C)C(=O)[C@@H](C)NC(=O)[C@H](CCC(N)=O)NC(=O)[C@H](CC(C)C)N(C)C(=O)[C@H](C(C)C)NC(=O)[C@H](CC(C)C)N(C)C(=O)CN(C)C1=O,0.018
CCC[C@@H]1NC(=O)[C@H](CC(C)C)N(C)C(=O)[C@H](CC(C)C)N(C)C(=O)[C@H](CC(C)C)N(C)C(=O)[C@H](CC(C)C)N(C)C(=O)[C@@H](C)NC(=O)[C@H](CCC(N)=O)NC(=O)[C@H](CC(C)C)N(C)C(=O)[C@H](C(C)C)NC(=O)CN(CCCCN)C(=O)CN(C)C1=O,0.0071
CCC[C@@H]1NC(=O)[C@H](CC(C)C)N(C)C(=O)[C@H](CC(C)C)N(C)C(=O)[C@H](CC(C)C)N(C)C(=O)CN(CCOC)C(=O)[C@@H](C)NC(=O)[C@H](CCC(N)=O)NC(=O)[C@H](CC(C)C)N(C)C(=O)[C@H](C(C)C)NC(=O)[C@H](CC(C)C)N(C)C(=O)CN(C)C1=O,0.014
CCC[C@@H]1NC(=O)[C@H](CC(C)C)N(C)C(=O)[C@H](CC(C)C)N(C)C(=O)[C@H](CC(C)C)N(C)C(=O)CN(Cc2ccccc2)C(=O)[C@@H](C)NC(=O)[C@H](CCC(N)=O)NC(=O)[C@H](CC(C)C)N(C)C(=O)[C@H](C(C)C)NC(=O)[C@H](CC(C)C)N(C)C(=O)CN(C)C1=O,0.01

2 of these entries, quoted again:

| compound | PAMPA (10^-6 cm/s) |
|---|---|
| CCC[C@@H]1NC(=O)[C@H](CC(C)C)N(C)C(=O)[C@H](CC(C)C)N(C)C(=O)[C@H](CC(C)C)N(C)C(=O)CN(CCC(=O)O)C(=O)[C@@H](C)NC(=O)[C@H](CCC(N)=O)NC(=O)[C@H](CC(C)C)N(C)C(=O)[C@H](C(C)C)NC(=O)[C@H](CC(C)C)N(C)C(=O)CN(C)C1=O | 0.0019 |
| CCC[C@@H]1NC(=O)[C@H](CC(C)C)N(C)C(=O)[C@H](CC(C)C)N(C)C(=O)[C@H](CC(C)C)N(C)C(=O)[C@H](CC(C)C)N(C)C(=O)[C@@H](C)NC(=O)[C@H](CCC(N)=O)NC(=O)[C@H](CC(C)C)N(C)C(=O)[C@H](C(C)C)NC(=O)CN(C)C(=O)CN(C)C1=O | 0.013 |